System: Murine leukemic cells L-1210
Assay: cell viability of L-1210 by uptake of methylene blue after Yoshixol
Assay type: cell-based
Settings: 4 μl of 2M Yoshixol in ethanol
Method: This procedure was repeated twice. […] This filtered solution was injected intraperitoneally at a range of 0.2 cc/mice into CDF-1 strain of male mice (Charles-River Co, Saitama). Control group was treated with a same amount of cell free culture medium. On 31 days after the injection of the filtered solution, 0.3 cc of culture medium (1×10^6 cells/ml) was injected intraperitoneally in each group. Then, survival time of the experimental leukemia was investigated. […] In contrast, mice which were treated the filtered solution became to start death on 12 days after the transplantation. Longest survived period was prolonged to 14 days after the transplantation.
This procedure was repeated twice.

C=C1CC(C)(C)C=CC1=O [Yoshixol, 4,4-dimethyl-6-methylene-2-cyclohexen-1-one]
survival cell (cell viability, uptake of methylene blue) (after 20 hours): zero
survival cell (cell viability, uptake of methylene blue) (after 30 hours): zero

— patent US7914793B2, “Method for producing an antigenic substance and antibody” (priority 1997, dated 2011)
